{"sequences": {"note": "By UniProt entry, the sequences of proteins in these tests, tags left out. Where a name states a change or a piece, a line headed by the entry shows the natural chain unless it says otherwise.", "UniProt P40337, whole entry, looked up": "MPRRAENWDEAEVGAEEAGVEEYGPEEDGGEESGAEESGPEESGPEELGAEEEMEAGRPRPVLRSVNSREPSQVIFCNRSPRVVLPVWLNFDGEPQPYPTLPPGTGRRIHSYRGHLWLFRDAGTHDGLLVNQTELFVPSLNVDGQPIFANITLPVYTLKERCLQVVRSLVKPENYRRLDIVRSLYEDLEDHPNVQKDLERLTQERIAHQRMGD", "UniProt Q96SW2": "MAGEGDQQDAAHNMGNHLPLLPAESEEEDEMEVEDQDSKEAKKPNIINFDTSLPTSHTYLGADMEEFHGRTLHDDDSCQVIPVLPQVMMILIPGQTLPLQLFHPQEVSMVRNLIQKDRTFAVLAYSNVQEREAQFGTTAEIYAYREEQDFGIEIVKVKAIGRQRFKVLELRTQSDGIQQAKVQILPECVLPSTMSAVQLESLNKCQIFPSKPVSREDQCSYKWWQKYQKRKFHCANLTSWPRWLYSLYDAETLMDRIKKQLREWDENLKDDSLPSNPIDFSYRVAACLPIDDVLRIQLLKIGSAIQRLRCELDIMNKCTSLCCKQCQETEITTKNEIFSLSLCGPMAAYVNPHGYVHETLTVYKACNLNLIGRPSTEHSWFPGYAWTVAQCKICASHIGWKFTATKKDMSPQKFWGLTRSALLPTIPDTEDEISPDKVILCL"}, "source": "ChEMBL document CHEMBL5518199", "about": "“Discovery of Effective Dual PROTAC Degraders for Neurodegenerative Disease-Associated Aggregates” (J Med Chem, 2024)", "key": {"[1]": {"target": "T1, von Hippel-Lindau disease tumor suppressor/Alpha-synuclein (Homo sapiens) (UniProt P37840+P40337)", "experiment": "PROTAC activity at VHL/alpha-synuclein in HEK293 cells assessed as decrease in alpha-synuclein phosphorylation at S129 residue measured for 48 hrs by immunoblot analysis", "format": "cell-based"}, "[2]": {"target": "T1, von Hippel-Lindau disease tumor suppressor/Alpha-synuclein (Homo sapiens)", "experiment": "PROTAC activity at VHL/alpha-synuclein in HEK293 cells assessed as decrease in alpha-synuclein aggregates measured for 48 hrs by immunoblot analysis", "format": "cell-based"}, "[3]": {"target": "T2, Protein cereblon/Alpha-synuclein (Homo sapiens) (UniProt P37840+Q96SW2)", "experiment": "PROTAC activity at CRBN/alpha-synuclein in HEK293 cells assessed as induction of alpha-synuclein aggregates by immunoblot analysis", "format": "cell-based"}, "Mus musculus [4]": {"test_system": "Mus musculus", "experiment": "Downregulation of total aggregated protein level in substantia nigra pars compacta of MPTP-treated C57BL/6 mouse at 8 mg/kg, iv preadministered with MPTP for 7 days followed by compound administration for another 7 days by ThS staining based analysis", "format": "functional, organism-based", "settings": "time 7.0 day"}, "Mus musculus [5]": {"test_system": "Mus musculus", "experiment": "Anti-parkinson's disease activity in MPTP-induced C57BL/6 mouse model assessed as change in alpha-synuclein level in brain at 2 to 8 mg/kg, iv preadministered with MPTP for 7 days followed by compound administration for another 7 days by immunoblot analysis", "format": "functional, organism-based", "settings": "dose 2-8 mg/kg, time 7.0 day"}, "Mus musculus [6]": {"test_system": "Mus musculus", "experiment": "Anti-parkinson's disease activity in MPTP-induced C57BL/6 mouse model assessed as decrease in total tau level in brain at 8 mg/kg, iv preadministered with MPTP for 7 days followed by compound administration for another 7 days by immunoblot analysis", "format": "functional, organism-based", "settings": "time 7.0 day"}, "Mus musculus [7]": {"test_system": "Mus musculus", "experiment": "Anti-parkinson's disease activity in MPTP-induced C57BL/6 mouse model assessed as change in phosphorylated S129 level in brain at 2 to 8 mg/kg, iv preadministered with MPTP for 7 days followed by compound administration for another 7 days by immunoblot analysis", "format": "functional, organism-based", "settings": "dose 2-8 mg/kg, time 7.0 day"}, "Mus musculus [8]": {"test_system": "Mus musculus", "experiment": "Downregulation of phosphorylated tau at S404 residue level in hippocampus CA3 region of MPTP-treated C57BL/6 mouse at 8 mg/kg, iv preadministered with MPTP for 7 days followed by compound administration for another 7 days by immunohistochemistry analysis", "format": "functional, organism-based", "settings": "time 7.0 day"}, "Mus musculus [9]": {"test_system": "Mus musculus", "experiment": "Downregulation of phosphorylated tau at S404 residue level in hippocampus CA1 region of MPTP-treated C57BL/6 mouse at 8 mg/kg, iv preadministered with MPTP for 7 days followed by compound administration for another 7 days by immunohistochemistry analysis", "format": "functional, organism-based", "settings": "time 7.0 day"}, "SH-SY5Y [10]": {"test_system": "SH-SY5Y", "experiment": "Neuroprotective activity against human SH-SY5Y cells assessed as reduction in ROS level incubated for 24 hrs by DCFH-DA staining based laser scanning microscopic analysis", "format": "functional, cell-based"}, "Mus musculus [11]": {"test_system": "Mus musculus", "experiment": "Anti-parkinson's disease activity in MPTP-induced C57BL/6 mouse model assessed as decrease in phosphorylated tau level in brain at 8 mg/kg, iv preadministered with MPTP for 7 days followed by compound administration for another 7 days by immunoblot analysis", "format": "functional, organism-based", "settings": "time 7.0 day"}, "Mus musculus [12]": {"test_system": "Mus musculus", "experiment": "Neuroprotective activity in MPTP-treated C57BL/6 mouse assessed as neuron viability in substantia nigra pars compacta at 8 mg/kg, iv preadministered with MPTP for 7 days followed by compound administration for another 7 days by Nissl staining based microscopy", "format": "functional, organism-based", "settings": "time 7.0 day"}, "Cell membrane": {"test_system": "Cell membrane", "experiment": "Induction of mitochondrial membrane potential depolarization in human SH-SY5Y incubated for 24 hrs by JC-1 staining based flow cytometric analysis", "format": "cell membranes"}, "Mus musculus [13]": {"test_system": "Mus musculus", "experiment": "Neuroprotective activity in MPTP-treated C57BL/6 mouse assessed as decrease in impaired neurons in substantia nigra pars compacta at 8 mg/kg, iv preadministered with MPTP for 7 days followed by compound administration for another 7 days by FJB staining based microscopy", "format": "functional, organism-based", "settings": "time 7.0 day"}, "Mus musculus [14]": {"test_system": "Mus musculus", "experiment": "Downregulation of alpha-synuclein level in substantia nigra pars compacta of MPTP-treated C57BL/6 mouse at 8 mg/kg, iv preadministered with MPTP for 7 days followed by compound administration for another 7 days by immunohistochemistry analysis", "format": "functional, organism-based", "settings": "time 7.0 day"}, "HEK-293T": {"test_system": "HEK-293T", "experiment": "Effect on GSPT1 level in HEK293T cells upto 10 uM incubated for 24 hrs by Western blot analysis", "format": "functional, cell-based", "settings": "Homo sapiens"}, "SH-SY5Y [15]": {"test_system": "SH-SY5Y", "experiment": "Cytotoxicity against human SH-SY5Y cells assessed as reduction in cell viability upto 10 uM by CCK-8 assay", "format": "functional, cell-based"}, "[16]": {"target": "T2, Protein cereblon/Alpha-synuclein (Homo sapiens)", "experiment": "PROTAC activity at CRBN/alpha-synuclein preformed fibrils seeded in HEK293T cells assessed as decrease in alpha-synuclein aggregates at 2.5 to 5 uM measured for 24 hrs by immunoblot analysis", "format": "cell-based", "settings": "HEK293, dose 2.5-5 µM"}}, "note": "Active and inactive are the calls of the source. The calls are words filed in the database; no cut-off is given here."}
{"smiles": "Cc1ccc2nc(-c3ccc(NCCOCCOCCOCCC(=O)N[C@H](C(=O)N4C[C@H](O)C[C@H]4C(=O)NCc4ccc(-c5scnc5C)cc4)C(C)(C)C)cc3)sc2c1", "values": [{"measurement": "Activity", "setting": "[1]", "result": "inactive"}, {"measurement": "Activity", "setting": "[2]", "result": "inactive"}]}
{"smiles": "Cc1ccc2nc(-c3ccc(NCCOCCOCCOCCC(=O)NCCOCCOCCNc4cccc5c4C(=O)N(C4CCC(=O)NC4=O)C5=O)cc3)sc2c1", "note": "(centres undefined)", "values": [{"measurement": "Activity", "setting": "[3]", "result": "inactive"}]}
{"smiles": "Cc1ccc2nc(-c3ccc(NCCOCCOCCOCCNC(=O)COc4cccc5c4C(=O)N(C4CCC(=O)NC4=O)C5=O)cc3)sc2c1", "note": "(centres undefined)", "values": [{"measurement": "Activity", "setting": "Mus musculus [4]", "result": "Active"}, {"measurement": "Activity", "setting": "Mus musculus [5]", "result": "Active"}, {"measurement": "Activity", "setting": "Mus musculus [6]", "result": "Active"}, {"measurement": "Activity", "setting": "Mus musculus [7]", "result": "Active"}, {"measurement": "Activity", "setting": "Mus musculus [8]", "result": "Active"}, {"measurement": "Activity", "setting": "Mus musculus [9]", "result": "Active"}, {"measurement": "Activity", "setting": "SH-SY5Y [10]", "result": "Active"}, {"measurement": "Activity", "setting": "Mus musculus [11]", "result": "Active"}, {"measurement": "Activity", "setting": "Mus musculus [12]", "result": "Active"}, {"measurement": "Activity", "setting": "Cell membrane", "result": "Active"}, {"measurement": "Activity", "setting": "Mus musculus [13]", "result": "Active"}, {"measurement": "Activity", "setting": "Mus musculus [14]", "result": "Active"}, {"measurement": "Activity", "setting": "HEK-293T", "result": "Active"}, {"measurement": "Activity", "setting": "SH-SY5Y [15]", "result": "Active"}]}
{"smiles": "O=C(COc1cccc2c1C(=O)N(C1CCC(=O)NC1=O)C2=O)NCCOCCOCCOCCNc1ccc(-c2nc3ccccc3s2)cc1", "note": "(centres undefined)", "values": [{"measurement": "Activity", "setting": "[16]", "result": "Active"}]}
{"smiles": "O=C(CCOCCOCCOCCNc1ccc(-c2nc3cc(Cl)ccc3s2)cc1)NCCOCCOCCNc1cccc2c1C(=O)N(C1CCC(=O)NC1=O)C2=O", "note": "(centres undefined)", "values": [{"measurement": "Activity", "setting": "[3]", "result": "inactive"}]}
{"smiles": "Cc1ncsc1-c1ccc(CNC(=O)[C@@H]2C[C@@H](O)CN2C(=O)[C@@H](NC(=O)CCOCCOCCNc2ccc(-c3nc4cc(Cl)ccc4s3)cc2)C(C)(C)C)cc1", "values": [{"measurement": "Activity", "setting": "[1]", "result": "inactive"}, {"measurement": "Activity", "setting": "[2]", "result": "inactive"}]}
{"smiles": "Cc1ccc2nc(-c3ccc(NCCOCCNC(=O)COc4ccc(C5CCC(=O)NC5=O)cc4)cc3)sc2c1", "note": "(centres undefined)", "values": [{"measurement": "Activity", "setting": "[3]", "result": "inactive"}]}
{"smiles": "Cc1ncsc1-c1ccc(CNC(=O)[C@@H]2C[C@@H](O)CN2C(=O)[C@@H](NC(=O)CCOCCOCCOCCNc2ccc(-c3nc4cc(Cl)ccc4s3)cc2)C(C)(C)C)cc1", "values": [{"measurement": "Activity", "setting": "[1]", "result": "inactive"}, {"measurement": "Activity", "setting": "[2]", "result": "inactive"}]}
